# How the values were obtained:
# [1] = biological target: T1, Neutrophil cytosol factor 1 (Homo sapiens, UniProt P14598)
# [2] = biological target: T1, Neutrophil cytosol factor 1; remark: listed apart in the source
# [3] = biological target: T1, Neutrophil cytosol factor 1; remark: listed apart in the source
# [4] = biological target: T1, Neutrophil cytosol factor 1; remark: listed apart in the source
compound,measurement,setting,value
CN1CCCN(Cc2ccc(CN)cc2)CC1,ΔTm,[1],0.5 °C
same,ΔTm,[2],1.1 °C
same,ΔTm,[3],0.3 °C
same,ΔTm,[4],2 °C

# Source: ChEMBL document CHEMBL4376880, “Developing Inhibitors of the p47phox-p22phox Protein-Protein Interaction by Fragment-Based Drug Discovery” (J Med Chem, 2020)
